Experimental data from patent US3959283A, “Amino-derivatives of 1,4-benzodioxan” (Laboratoire L. Lafon, priority 1974, dated 1976).

Tested on: adrenergic receptors
Assay: Inhibition/reversal of tension effects of adrenalin, intravenous (products of Examples 11 to 13)
Assay type: in vivo
Settings: adrenalin alone, animal itself as control
Procedure: the doses of CRL 40,150 from 0.5 to 4 mg/kg being administered successively.

CNCC(O)c1ccc(O)c(O)c1 (stereo not shown) [adrenalin]
effect of adrenalin (hypertension): 152%
